Data reported in patent publication US20250281574A1 (priority 2022, published 2025).
Peptide text beside a SMILES is read from it. * marks the point of attachment. Biotin = O=C1N[C@H]2[C@H](CS[C@H]2CCCCC(=O)*)N1; Ahx = NCCCCCC(=O)O

Tested on: C57BL/6 mice fed ethanol
Test: Alcoholic lung syndrome mouse model with LPS lung injury, Evan's Blue permeability
Settings: alcoholic C57BL/6 mice; 5 mg/kg aerosolized aCT1 1 hour after intratracheal 5 mg/kg LPS

## CC[C@H](C)[C@H](NC(=O)[C@H](CCC(=O)O)NC(=O)[C@H](CC(C)C)NC(=O)[C@H](CC(=O)O)NC(=O)[C@H](CC(=O)O)NC(=O)[C@@H]1CCCN1C(=O)[C@H](CCCNC(=N)N)NC(=O)[C@@H]1CCCN1C(=O)[C@H](CCCNC(=N)N)NC(=O)[C@H](CCCCN)NC(=O)[C@H](CCCCN)NC(=O)[C@H](Cc1c[nH]c2ccccc12)NC(=O)[C@@H]1CCCN1C(=O)[C@H](CCCCN)NC(=O)[C@H](CCCNC(=N)N)NC(=O)[C@H](CCCNC(=N)N)NC(=O)[C@H](CC(N)=O)NC(=O)[C@@H]1CCCN1C(=O)[C@H](Cc1ccccc1)NC(=O)[C@H](Cc1c[nH]c2ccccc12)NC(=O)[C@@H](NC(=O)[C@H](CCCCN)NC(=O)[C@@H]1CCCN1C(=O)[C@H](CCC(N)=O)NC(=O)[C@H](CCCNC(=N)N)NC(=O)CCCCCNC(=O)CCCC[C@@H]1SC[C@@H]2NC(=O)N[C@@H]21)[C@@H](C)CC)C(=O)O [aCT1] ({Biotin-Ahx}-RQPKIWFPNRRKPWKKRPRPDDLEI-OH; N-terminus and C-terminus assumed)
  pulmonary barrier permeability (Evan's Blue assay): reduced pulmonary barrier permeability back to non-alcoholic levels
